The record followed here is doi:10.1101/2021.09.23.461563.

Sequences of proteins named here, by UniProt entry; tags and fusion partners are left off.
UniProt P02745, whole entry, looked up: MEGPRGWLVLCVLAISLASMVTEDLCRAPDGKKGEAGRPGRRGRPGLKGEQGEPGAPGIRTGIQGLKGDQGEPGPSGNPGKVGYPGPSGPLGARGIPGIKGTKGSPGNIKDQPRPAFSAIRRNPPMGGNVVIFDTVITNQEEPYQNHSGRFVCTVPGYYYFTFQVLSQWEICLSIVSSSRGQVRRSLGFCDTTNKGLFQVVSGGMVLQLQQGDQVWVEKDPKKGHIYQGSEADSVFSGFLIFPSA
human C1 complex (C1qC1r2C1s2), UniProt P02746, whole entry, looked up: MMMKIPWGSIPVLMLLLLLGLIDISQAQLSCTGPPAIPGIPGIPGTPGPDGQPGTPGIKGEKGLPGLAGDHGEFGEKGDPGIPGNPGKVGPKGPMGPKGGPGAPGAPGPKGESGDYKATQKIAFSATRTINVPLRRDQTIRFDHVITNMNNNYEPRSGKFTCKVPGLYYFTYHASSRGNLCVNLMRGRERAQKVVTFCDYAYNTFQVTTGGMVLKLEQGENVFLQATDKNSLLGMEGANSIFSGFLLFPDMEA
human C1 complex (C1qC1r2C1s2), UniProt P02747, whole entry, looked up: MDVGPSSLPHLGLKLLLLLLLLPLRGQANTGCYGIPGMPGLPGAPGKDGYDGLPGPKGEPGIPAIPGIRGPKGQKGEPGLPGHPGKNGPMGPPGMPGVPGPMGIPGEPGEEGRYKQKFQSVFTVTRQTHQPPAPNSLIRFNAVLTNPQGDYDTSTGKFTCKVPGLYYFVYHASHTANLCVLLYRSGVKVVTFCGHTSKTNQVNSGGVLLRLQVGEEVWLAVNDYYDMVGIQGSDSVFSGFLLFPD

pKd: −log10 of the molar value.

The target of the experiment is GST-ErpQ (Borrelia burgdorferi strain B31). As to the kind of experiment: SPR.

Regarding “human C1 complex (C1qC1r2C1s2) (from UniProt P02745 23-245; P02746 28-253; P02747 29-245)”, the pKd is 7.96.
